Data taken from patent publication US20230340081A1.

Target: HBV genotype D viruses (produced in HepG2.2.15 cell culture supernatant) (hepatitis B virus genotype D)
Experiment: cell-based or functional assay

Bc8.104 (antibody)
HBV-gD in vitro neutralization (IC50 µg/ml): 2.61e-06 µg/mL
